Chains of the proteins cited; added tags and fusions are not shown.
UniProt P62942, whole entry: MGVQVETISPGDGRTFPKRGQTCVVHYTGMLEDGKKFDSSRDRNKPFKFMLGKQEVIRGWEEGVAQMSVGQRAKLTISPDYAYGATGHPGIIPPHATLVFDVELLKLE

In ChEMBL document CHEMBL1131428, “Immunophilins: beyond immunosuppression” (J Med Chem, 1998):

Molecular target: Peptidyl-prolyl cis-trans isomerase FKBP1A (Homo sapiens, UniProt P62942)
Assay: Compound was tested for its ability to inhibit FK506 binding protein 12 rotamase activity

## COc1cc(C(=O)C(=O)N2CCCCC2C(=O)OC(CCCc2ccccc2)CCCc2cccnc2)cc(OC)c1OC (stereo unspecified)
  Ki: 0.5 nM
